What was measured:
[1] = system: BE-M17 human neuroblastoma cells stably transfected with A53T-mutant human α-synuclein; experiment: Thioflavin S staining of rotenone-induced α-synuclein aggregates in cells
[2] = target: TauRD (Homo sapiens (Human), UniProt P10636); experiment: Circular dichroism spectroscopy: tau protein β-sheet formation
[3] = system: A53T α-synuclein-expressing BE-M17 cells; experiment: XTT assay: rotenone-induced cell death

The chains behind the UniProt entries cited, without tags or fusion partners. Residues count along the entry.
UniProt P10636, 561-689 limits assumed: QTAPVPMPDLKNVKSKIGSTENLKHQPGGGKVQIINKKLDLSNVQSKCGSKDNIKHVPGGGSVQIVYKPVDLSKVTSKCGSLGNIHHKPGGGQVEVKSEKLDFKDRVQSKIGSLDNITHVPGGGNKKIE

| Compound | inhibition of rotenone-induced Thioflavin S-positive inclusions (in words) [1] | CD [2] | IC50 [3] [µM] | inhibition of rotenone-induced cell death (in words) [3] |
| --- | --- | --- | --- | --- |
| O=C(Nc1ccc(O)c(O)c1)c1cc(O)c(O)cc1Br | significant disruption/prevention/inhibition |  |  |  |
| Oc1ccc(-c2cc(-c3ccc(O)c(O)c3)c(-c3ccc(O)c(O)c3)s2)cc1O | significant disruption/prevention/inhibition | + | 3.6 | significant, dose-dependent inhibition |

Source: patent publication US9085549B2, “Compounds for the treatment of neurodegenerative diseases” (ProteoTech Inc., priority 2011, dated 2015)
